The values below come from PubChem BioAssay AID720509 (The Scripps Research Institute Molecular Screening Center, 2013).

Amino acid sequences for entries named in this document (tags omitted).
UniProt P02675, whole entry, looked up: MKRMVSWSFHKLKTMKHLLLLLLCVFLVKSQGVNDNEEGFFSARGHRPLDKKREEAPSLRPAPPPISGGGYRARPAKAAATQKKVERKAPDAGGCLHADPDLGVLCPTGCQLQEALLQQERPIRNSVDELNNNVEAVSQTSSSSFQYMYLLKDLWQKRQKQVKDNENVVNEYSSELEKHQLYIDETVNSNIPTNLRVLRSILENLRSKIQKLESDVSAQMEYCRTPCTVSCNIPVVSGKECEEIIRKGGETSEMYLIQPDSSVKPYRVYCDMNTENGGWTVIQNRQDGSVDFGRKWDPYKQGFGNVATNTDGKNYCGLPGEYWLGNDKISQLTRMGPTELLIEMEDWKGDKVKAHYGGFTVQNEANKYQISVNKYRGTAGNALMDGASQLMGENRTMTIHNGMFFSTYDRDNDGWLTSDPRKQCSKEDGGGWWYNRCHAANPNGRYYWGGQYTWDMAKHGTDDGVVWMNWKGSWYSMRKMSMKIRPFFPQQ

This is a selection; strong and weak results do not stand in their true shares. Some of these compounds have results that are not shown, active ones among them. Activity calls are given as the source filed them.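 The calls were made as follows: active = inhibition above a per-campaign cutoff: mean of compounds within control limits plus 3 SD (cut at about 15% in these data); inactive = the rest.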

This experiment has as its target Fibrinogen beta chain (Homo sapiens) (UniProt P02675). The experiment is described as follows: small molecules displacing Tn6 from DD(E) complex – biochemical, fluorescence polarization, human fibrin, Tn6 probe, primary screen (AID 720509).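 Also: 0% = median of all compound wells on the plate and 100% = blocking peptide control.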 The settings on record: Fibrin DD(E) TRITC-Tn6 fluorescence polarization displacement; at 8.3 µM; stronger effect = higher value.
On to `O=C(OC1CN2CCC1CC2)C(CO)(c1ccccc1)c1ccccc1` (stereo unspecified), for which the inhibition was inactive: 11.8%.
With `CN(C)c1cccc(C(=O)NCC2(N(C)C)CCCCC2)c1`, the inhibition is inactive: 11.2%.
For the compound `CC(C)Oc1ccc(C(=O)NCC2(N(C)C)CCCCC2)cc1`, the inhibition was inactive: 6.47%.
Under `O=C(OCCN1CCCC1)C(O)(c1ccccc1)c1ccccc1` stands inactive: 0.78%.
Under `COc1ccc(Br)c(C(=O)NCC2(N3CCCCC3)CCCCC2)c1` stands inactive: 2.68%; under `C=C(C)C#CC(O)(C(=O)OC1CCN(C)CC1)c1ccccc1` (stereo unspecified), inactive: -1.48%; under `COc1cc(C(=O)NCC2(N(C)C)CCCCC2)c([N+](=O)[O-])cc1OC`, inactive: -3.87%.
Next, `CN(C)C1(CNC(=O)c2ccc(Br)cc2)CCCCC1`: inactive: -2.12%; `O=C(NCC1(N2CCCCC2)CCCCC1)c1cccc(Cl)c1`: inactive: -4.13%.
With `COc1cccc(C(=O)NCC2(N3CCCCC3)CCCCC2)c1`, the inhibition is inactive: -1.19%.
Next, `COc1ccc(Cl)cc1C(=O)NCC1(N(C)C)CCCCC1`: inactive: 2.51%; `Cc1ccccc1C(=O)NCC1(N2CCCCC2)CCCCC1`: inactive: -2.09%; `CN(C)C1CCCC1OC(=O)C(O)(c1ccccc1)c1ccccc1` (stereo unspecified): inactive: 0%.
Consider `CN(C)c1ccc(C(=O)NCC2(N(C)C)CCCCC2)cc1`, for which the inhibition was inactive: -1.86%.
As to `Cc1cc(C(=O)NCC2(N3CCCCC3)CCCCC2)ccc1[N+](=O)[O-]`, the inhibition is inactive: -4.31%.
Under `CCN1CCCC(OC(=O)C2(O)c3ccccc3C=Cc3ccccc32)C1` (stereo unspecified) stands inactive: -1.48%; under `O=C(NCC1(N2CCCCC2)CCCCC1)c1cccc(Br)c1`, inactive: 12.7%; under `COc1ccc(C(=O)NCC2(N(C)C)CCCCC2)cc1`, inactive: 8.6%.
Under `C=CCN1CCN(CCOC(=O)C(O)(c2ccccc2)c2ccccc2)CC1` stands inactive: 6.24%.
Next, `O=C(NCC1(N2CCCCC2)CCCCC1)c1cc(F)c(F)cc1Cl`: inactive: -0.18%.
Turning to `CN1[C@@H]2CC[C@H]1CC(OC(=O)C(O)(c1ccccc1)c1ccccc1)C2` (stereo partly specified), the inhibition was inactive: -2.04%.
Next, `O=C(NCC1(N2CCCCC2)CCCCC1)c1cc([N+](=O)[O-])ccc1Cl`: inactive: -2.44%; `Cc1ccc(C(=O)NCC2(N3CCCCC3)CCCCC2)cc1`: inactive: 3.7%.
Take `CC(C)N1C(=O)CC2(CCN(CCOC(=O)C(O)(c3ccccc3)c3ccccc3)CC2)C1=O`: the inhibition is inactive: 8.71%.
For the compound `CCN(CC)CC(C)C(C)OC(=O)C(O)(c1ccccc1)c1ccccc1` (stereo unspecified), the inhibition is inactive: -0.02%.
Under `COc1cc(SC)ccc1C(=O)NCC1(N(C)C)CCCCC1` stands inactive: 0.9%.
